How the values were obtained:
SSTR2 = SSTR2 (Homo sapiens, UniProt P30874); assay: SSTR receptor binding affinity (Ki), SSTR2; conditions: read-out: SSTR Specificity Ki SSTR2
Source text: What is meant by an SSTR-2 receptor selective agonist is an SSTR-2 receptor agonist which has a higher binding affinity (i.e., lower Ki) for SSTR-2 than for any other somatostatin receptor i.e., SSTR-1, SSTR-3, SSTR-4 or SSTR-5.

The chains behind the UniProt entries cited, without tags or fusion partners. Where a name states a change or a piece, a line headed by the entry shows the natural chain unless it says otherwise.
UniProt P30874: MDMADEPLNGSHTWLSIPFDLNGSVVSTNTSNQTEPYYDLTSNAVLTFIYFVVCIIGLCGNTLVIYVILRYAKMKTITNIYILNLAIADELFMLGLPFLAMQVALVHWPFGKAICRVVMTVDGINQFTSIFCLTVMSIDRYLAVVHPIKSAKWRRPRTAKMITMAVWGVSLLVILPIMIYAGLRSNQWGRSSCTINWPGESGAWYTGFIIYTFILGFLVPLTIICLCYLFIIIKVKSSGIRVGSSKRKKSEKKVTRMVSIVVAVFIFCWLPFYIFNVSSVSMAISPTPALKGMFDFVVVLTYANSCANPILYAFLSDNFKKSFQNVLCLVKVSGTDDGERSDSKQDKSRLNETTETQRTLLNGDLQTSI
UniProt P32745: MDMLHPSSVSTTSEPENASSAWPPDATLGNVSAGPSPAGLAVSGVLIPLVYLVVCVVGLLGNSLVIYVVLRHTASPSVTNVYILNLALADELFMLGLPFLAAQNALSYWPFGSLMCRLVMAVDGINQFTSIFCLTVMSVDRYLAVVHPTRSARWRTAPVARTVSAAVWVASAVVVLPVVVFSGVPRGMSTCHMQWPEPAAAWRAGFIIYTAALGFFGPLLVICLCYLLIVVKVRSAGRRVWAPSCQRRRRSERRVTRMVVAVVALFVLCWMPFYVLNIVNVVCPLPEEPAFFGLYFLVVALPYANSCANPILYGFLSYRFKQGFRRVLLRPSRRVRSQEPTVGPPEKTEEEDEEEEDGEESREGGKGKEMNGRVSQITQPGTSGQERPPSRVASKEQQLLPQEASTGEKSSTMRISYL
UniProt P35346: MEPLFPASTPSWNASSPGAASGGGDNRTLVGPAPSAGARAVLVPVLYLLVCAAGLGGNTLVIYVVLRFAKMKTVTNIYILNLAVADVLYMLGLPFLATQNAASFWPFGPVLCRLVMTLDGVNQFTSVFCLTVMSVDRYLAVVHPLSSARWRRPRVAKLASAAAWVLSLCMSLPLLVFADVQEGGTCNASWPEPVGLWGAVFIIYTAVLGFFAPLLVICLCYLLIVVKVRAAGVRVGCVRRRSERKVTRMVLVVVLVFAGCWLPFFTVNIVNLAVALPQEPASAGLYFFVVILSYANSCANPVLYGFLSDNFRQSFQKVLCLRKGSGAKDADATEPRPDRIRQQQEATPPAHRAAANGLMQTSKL

SSTR3 = SSTR3 (Homo sapiens, UniProt P32745); assay: SSTR receptor binding affinity (Ki), SSTR3; conditions: read-out: SSTR Specificity Ki SSTR3
Source text: What is meant by an SSTR-3 receptor selective agonist is an SSTR-3 receptor agonist which has a higher binding affinity (i.e., lower Ki) for SSTR-3 than for any other somatostatin receptor i.e., SSTR-1, SSTR-2, SSTR-4 or SSTR-5.

SSTR5 = SSTR5 (Homo sapiens, UniProt P35346); assay: SSTR receptor binding affinity (Ki), SSTR5; conditions: read-out: SSTR Specificity Ki SSTR5

Row | Ki (SSTR2) [µM] | Ki (SSTR3) [µM] | Ki (SSTR5) [µM] | SMILES
1 | 0.00018 | – | – | CC[C@@H]1NC(=O)[C@H](CCCCN)NC(=O)[C@@H](Cc2c[nH]c3ccccc23)NC(=O)[C@H](Cc2ccc(O)cc2)NC(=O)[C@@H](NC(=O)[C@@H](Cc2ccccc2)NS(=O)(=O)CCN2CCN(CCO)CC2)CSSC[C@@H](C(=O)N[C@H](C(N)=O)[C@@H](C)O)NC1=O [4-(2-Hydroxyethyl)-1-piperazine-2-ethanesulfonyl-D-Phe-c[Cys-Tyr-D-Trp-Lys-Abu-Cys]-Thr-NH2]
2 | – | 0.215 | 0.0106 | CC[C@@H]1NC(=O)[C@H](CCCCN)NC(=O)[C@@H](Cc2c[nH]c3ccccc23)NC(=O)[C@H](Cc2ccc(O)cc2)NC(=O)[C@@H](NC(=O)[C@@H](Cc2ccccc2)NC(=O)CN2CCN(CCO)CC2)CSSC[C@@H](C(=O)N[C@H](C(N)=O)[C@@H](C)O)NC1=O [4-(2-Hydroxyethyl)-1-piperazinylacetyl-D-Phe-c[Cys-Tyr-D-Trp-Lys-Abu-Cys]-Thr-NH2]

Reference: US20090099094A1, “Use of Somatostatin Agonists to Treat Medullary Thyroid Carcinoma” (priority 2007, published 2009)
